Patent publication US20260384420A1, “TEGOPRAZAN CRYSTAL FORM B AND PREPARATION METHOD THEREFOR” (published 2026)

How the values were obtained:
[1] = Photostability (light exposure) test, XRPD and HPLC; details: for Purity of starting material (before light exposure) / Purity after light exposure: HPLC; for Purity of starting material (before light exposure): baseline; for Photostability, crystal form B compared with crystal form A / XRPD crystal form after light exposure / Purity after light exposure: total illumination 1.2×10^6 Lux hr; for XRPD crystal form after light exposure / Purity after light exposure: 5000 Lux, 90 uV/cm^2
[2] = Stability test: crystal form by XRPD and chemical purity by HPLC after exposure to temperature/humidity; details: for Purity after stability study: HPLC
[3] = in vivo; cited from earlier work
proton pumps = details: cited from earlier work
[4] = Hygroscopicity test by dynamic vapour sorption (DVS), XRPD before and after; details: listed as Crystal form B
[5] = Thermogravimetric analysis (TGA) weight loss; details: 0-150 °C

| Purity of starting material (before light exposure) [1] | Photostability, crystal form B compared with crystal form A [1] | XRPD crystal form after light exposure [1] | Purity after light exposure [1] | XRPD crystal form after stability study ([2]; 25 °C/60% RH, two weeks) | Purity after stability study ([2]; 25 °C/60% RH, two weeks) [%] | XRPD crystal form after stability study ([2]; 25 °C/92.5% RH, two weeks) | Purity after stability study ([2]; 25 °C/92.5% RH, two weeks) [%] | XRPD crystal form after stability study ([2]; 40 °C/75% RH, two weeks) | Purity after stability study ([2]; 40 °C/75% RH, two weeks) [%] | Structure (SMILES) | further results |
| --- | --- | --- | --- | --- | --- | --- | --- | --- | --- | --- | --- |
| is 99.8%) | the same photostability | form A | 99.8% (The | crystal form A | 99.6 | crystal form A | 99.7 | crystal form A | 99.5 | Cc1nc2c(O[C@H]3CCOc4cc(F)cc(F)c43)cc(C(=O)N(C)C)cc2[nH]1 [crystal form A] | – |
| – | – | – | – | – | – | – | – | – | – | Cc1nc2c(O[C@H]3CCOc4cc(F)cc(F)c43)cc(C(=O)N(C)C)cc2[nH]1 | Half-life period [3]: long half-life period; Inhibition of resting and active proton pumps (proton pumps): inhibits both resting and active proton pumps simultaneously |
| is 99.8%) | the same photostability | form B | 99.8% (The | crystal form B | 99.8 | crystal form B | 99.7 | crystal form B | 99.7 | Cc1nc2c(O[C@H]3CCOc4cc(F)cc(F)c43)cc(C(=O)N(C)C)cc2[nH]1 [crystal form B] | Change in chemical purity after illumination ([1]; total illumination not less than 1.2×10^6 Lux hr): no significant change; Change of crystal form before and after hygroscopicity test ([4]; 0-90-0% RH, XRPD): unchanged, still crystal; Weight gain (moisture adsorption) ([4]; 60%-80% relative humidity, DVS): 0.31%; TGA weight loss [5]: about 0.67%; TGA weight loss (general statement) ([5]; heating rate 10 °C/min): no more than 2%; TGA weight loss (preferably) ([5]; heating rate 10 °C/min): no more than 0.7%; Water absorption / transformation into another crystal form ([2]; 25 °C and 92.5% RH): will not absorb water molecules or transform into any other crystal form; Storage time ([2]; 25 °C/60% RH, 40 °C/75% RH and 25 °C/92.5% RH): at least two; XRPD before and after the stability test ([2]; FIG. 7): unchanged; Stability compared with crystal form A ([2]; three humidity and temperature conditions, two weeks): equivalent stability as crystal form A |
